Data as given in IntAct's records for PubMed 21481773.

B1: Negative regulator of ofd1 (Schizosaccharomyces pombe (strain ATCC 38366 / 972)), Q9USJ7 (parent)
chain: MIGRRPQGLRAAASLKKQQQLEKQKQEASYELSGNSSPSKENGSENVDNGEMEDETMLVYTEEDNISQLWGLYEMSREKLENDDIDASVSLVFGTIHEADRILRNTEDISTLPKDFHAAYSSALLAVSELFEIAQKRLKETNTEESYIDAAIERAQLGLDAPGNESRLFLALARAYLEKVRVLVWRHDNEESLANIPVTQLVNPYIEKAIQYLRPLAQDSTEYFDALTPDSLRPLYILSSYLFQFGDQFSEAFLLDVCSIITALWLKSVVDPNTPAYYKLIAQEAVLNNYTTFAEYYMDLLDNSESNVDDLINKASSWLNNSVDTWNVIYTLDKSPERLLKLADIKMDLAQIVQDEASQDNYLKEACNAIKEAQGSGVELSPDYVEFVEAYSA
partner: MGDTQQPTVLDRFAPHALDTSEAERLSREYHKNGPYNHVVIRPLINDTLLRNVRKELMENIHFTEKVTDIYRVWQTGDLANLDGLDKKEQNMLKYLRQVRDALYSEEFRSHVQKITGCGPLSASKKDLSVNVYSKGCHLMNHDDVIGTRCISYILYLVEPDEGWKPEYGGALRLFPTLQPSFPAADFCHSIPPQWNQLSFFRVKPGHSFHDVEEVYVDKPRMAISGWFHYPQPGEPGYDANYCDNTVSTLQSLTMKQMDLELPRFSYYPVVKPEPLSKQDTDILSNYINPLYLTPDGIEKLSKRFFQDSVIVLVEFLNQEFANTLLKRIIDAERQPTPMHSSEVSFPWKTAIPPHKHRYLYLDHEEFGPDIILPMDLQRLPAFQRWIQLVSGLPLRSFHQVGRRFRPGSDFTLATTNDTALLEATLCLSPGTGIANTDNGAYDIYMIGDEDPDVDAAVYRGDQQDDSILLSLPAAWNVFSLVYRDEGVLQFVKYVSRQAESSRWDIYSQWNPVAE

Variants of: B1
Details: with ofd1_schpo ofd1, Q11120

| effect of a mutation on the interaction | Variant |
| --- | --- |
| decreasing interaction | D299A;D302A |
| decreasing interaction | D348A |
| decreasing interaction | D344A;D383A |
| decreasing interaction | D344A |

The remaining lines, values behind:

| Variant | effect of a mutation on the interaction |
| --- | --- |
| Y120H;D383A | decreasing interaction |
| E295A;D302A | decreasing interaction |
| E295Q;D299N;D302N | decreasing interaction |
